From US20070037785A1, “Novel dipeptidyl peptidase IV inhibitors used for functionally influencing different cells and treating immunological, infammatory, neuronal, and other diseases” (priority 2003, published 2007)

Sequences of proteins named here, by UniProt entry; tags and fusion partners are left off.
UniProt P27487, whole entry, looked up: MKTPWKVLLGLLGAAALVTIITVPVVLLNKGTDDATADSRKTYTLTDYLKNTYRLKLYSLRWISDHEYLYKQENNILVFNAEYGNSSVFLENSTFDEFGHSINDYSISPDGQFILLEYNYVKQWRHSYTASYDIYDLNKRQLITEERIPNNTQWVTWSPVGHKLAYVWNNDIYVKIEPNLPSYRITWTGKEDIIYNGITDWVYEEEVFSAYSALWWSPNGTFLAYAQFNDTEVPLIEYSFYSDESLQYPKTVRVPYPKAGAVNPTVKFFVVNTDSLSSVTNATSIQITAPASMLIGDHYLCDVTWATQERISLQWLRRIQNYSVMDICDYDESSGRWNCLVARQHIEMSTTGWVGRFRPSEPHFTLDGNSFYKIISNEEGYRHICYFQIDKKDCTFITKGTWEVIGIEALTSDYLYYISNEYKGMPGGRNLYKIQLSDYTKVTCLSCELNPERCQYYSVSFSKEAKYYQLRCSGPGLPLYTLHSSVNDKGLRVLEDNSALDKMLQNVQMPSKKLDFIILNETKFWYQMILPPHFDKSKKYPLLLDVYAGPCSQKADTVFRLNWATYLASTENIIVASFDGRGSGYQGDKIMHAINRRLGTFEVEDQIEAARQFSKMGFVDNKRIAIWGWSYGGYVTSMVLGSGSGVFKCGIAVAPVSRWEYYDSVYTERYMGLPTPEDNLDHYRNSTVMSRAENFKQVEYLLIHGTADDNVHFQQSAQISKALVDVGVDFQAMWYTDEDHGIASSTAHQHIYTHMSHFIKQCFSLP

Target: dipeptidyl peptidase IV (Homo sapiens, UniProt P27487)
Details: read-out: IC50DPIV; values without "*" = IC-50

For `O=C(COc1ccc([N+](=O)[O-])cc1Br)N/N=C/c1cc([N+](=O)[O-])cc([N+](=O)[O-])c1O`, the IC50 was 46.5 µM.
